We go through one compound from ChEMBL document CHEMBL4808242, “Discovery of GNE-502 as an orally bioavailable and potent degrader for estrogen receptor positive breast cancer” (Bioorg Med Chem Lett, 2021).

Amino acid sequences for entries named in this document (tags omitted).
UniProt P03372, whole entry: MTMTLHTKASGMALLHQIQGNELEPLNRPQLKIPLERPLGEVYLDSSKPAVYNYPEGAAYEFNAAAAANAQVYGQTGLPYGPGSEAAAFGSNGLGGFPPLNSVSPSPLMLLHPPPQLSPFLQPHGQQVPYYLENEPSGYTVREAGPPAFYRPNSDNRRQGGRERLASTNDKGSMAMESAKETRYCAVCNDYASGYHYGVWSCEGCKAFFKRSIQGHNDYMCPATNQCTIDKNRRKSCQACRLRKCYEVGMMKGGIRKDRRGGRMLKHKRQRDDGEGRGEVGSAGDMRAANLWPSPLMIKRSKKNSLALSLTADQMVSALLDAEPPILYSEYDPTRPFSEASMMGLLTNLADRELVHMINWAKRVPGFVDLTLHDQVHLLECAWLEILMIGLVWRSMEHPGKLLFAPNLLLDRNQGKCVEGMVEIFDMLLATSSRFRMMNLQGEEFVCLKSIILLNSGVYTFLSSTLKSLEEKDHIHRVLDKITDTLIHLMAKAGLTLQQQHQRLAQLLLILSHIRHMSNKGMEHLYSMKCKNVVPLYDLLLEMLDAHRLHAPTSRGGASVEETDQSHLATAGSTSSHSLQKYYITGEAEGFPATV

Structures are written as SMILES.

The target of this assay is Estrogen receptor (Homo sapiens, UniProt P03372). The assay can be described thus: Induction of ERalpha degradation in human MCF7 cells assessed as maximum degradation by immunofluorescence assay relative to control. It is filed as cell-based.

Turning to `C[C@@H]1Cc2c([nH]c3ccccc23)[C@@H](c2c(F)cc(OCCN3CC(CF)C3)cc2F)N1CC(C)(C)F`, the %max was determined as 95%.
